This is a selection; strong and weak results do not stand in their true shares. Records with an inconclusive call do not appear. The source made the active and inactive calls. Calls follow the shape of the dose curve; as a rule, active = well fitted inhibition curve with a large enough effect (not every such curve was filed as active); inconclusive = small, poorly fitted or top-dose-only effect, or another doubt; inactive = no such curve, though single readings can be large or run the other way.
Biological target: Lysine-specific demethylase 4E (Homo sapiens) (UniProt B2RXH2)
Test: qHTS Assay for Inhibitors of Human Jumonji Domain Containing 2E (JMJD2E)
Conditions: JMJD2E catalytic domain, FDH-coupled NADH fluorescence (FDH is formaldehyde dehydrogenase); at 57.1 µM (top of the series)
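Also: 0% = wells with enzyme and -100% = buffer wells without enzyme; nearly all actives have a fitted effect of over 50% in size.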

By UniProt entry, the sequences of proteins in these tests, tags left out. Residues count along the entry.
UniProt B2RXH2, 1-337 limits assumed: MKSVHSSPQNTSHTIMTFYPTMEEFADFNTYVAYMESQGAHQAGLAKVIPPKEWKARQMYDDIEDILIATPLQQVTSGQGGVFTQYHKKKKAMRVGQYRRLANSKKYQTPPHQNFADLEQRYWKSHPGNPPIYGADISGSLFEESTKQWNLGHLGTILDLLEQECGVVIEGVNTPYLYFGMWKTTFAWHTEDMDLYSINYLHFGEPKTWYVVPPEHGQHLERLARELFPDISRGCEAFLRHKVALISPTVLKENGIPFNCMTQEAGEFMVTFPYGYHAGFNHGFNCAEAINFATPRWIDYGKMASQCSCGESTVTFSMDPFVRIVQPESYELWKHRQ

**Q.** For `CN(CCCl)CCCl`, which activity change, negative = inhibition is on record?
**A.** inactive: -4.23%
